Laboratory results published in US11203613B2, “Peptidomimetic proteasome inhibitors” (CORNELL UNIVERSITY, priority 2017, dated 2021).

Target: Human Constitutive (Hu C-20S) β5 Active Subunit (Homo sapiens, UniProt P28074)
Assay: IC50 determination, human constitutive 20S proteasome β5c (suc-LLVY-AMC hydrolysis)
Settings: read-out: Hu c-20S IC50; Table 2; several values in a cell are repeat determinations
Description: Experiments to determine IC50 values against β5i and β5c for compounds were carried out in 96-well plates. In brief, 1 μL of compound in a 3× series dilution in DMSO at concentration ranging from 100 μM-0.0017 μM were spotted to the bottom of a black 96-well plate with solid bottom. 100 μL of reaction buffer (20 mM THEPES, 0.5 mM EDTA, pH7.5, 0.1% BSA) containing enzyme (final concentration was 0.2 nM for c-20S, and 0.4 nM for i-20S) and substrate (25 μM for suc-LLVY-AMC for β5c and 15 μM for Ac-ANW-AMC) were dispensed into each well, and the plate was then spun at 1000× rpm for 1 minute and then shaked on a shaker for 1 minute. Time course of the hydrolysis of each well was followed by recording the fluorescence of product AMC (Ex 360 nm and Em 460 nm) on aSpectraMax M5 plate reader for 1.5-2 hours. Initial reaction velocity of each well was fit to adose-dependent inhibition equation using PRISM to determine the IC50. IC50S were determined only for β5i and β5c (Table 2). SDS was used as activator for both enzymes at concentration 0.02%.

SMILES | IC50
C[C@H](NC(=O)[C@H](CC(=O)N1CCCC[C@@H]1C)Nc1nc2ccccc2o1)c1ncc(-c2ccc(F)cc2F)[nH]1 [CEN-109, (S)-2-(Benzo[d]oxazol-2-ylamino)-N—((S)-1-(5-(2,4-difluorophenyl)-1H-imidazol-2-yl)ethyl)-4-((S)-2-methylpiperidin-1-yl)-4-oxobutanamide] | 7.26 µM
CC[C@H]1CCCCN1C(=O)C[C@H](NC(=O)C1CC(C)(C)C1)C(=O)N[C@@H](C)c1nc2c(F)cccc2[nH]1 | 4.41 µM
